Experimental data from PubChem BioAssay (NCI).
The list shows a part of the results, in another mix than the full data. Some compounds were tested as several samples or in several runs, with calls that do not always agree. Activity calls are given as the source filed them. Cut-off read from the data, not from the text of the source: active = growth inhibition above about 70%; inactive = the rest.

Assays:
[1] = NCI Yeast Anticancer Drug Screen. Data for the rad50 strain (AID 155);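 note: 0% = growth of vehicle-only cultures of the same strain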; details: S. cerevisiae rad50 strain growth inhibition, active compounds read high
[2] = NCI Yeast Anticancer Drug Screen. Data for the mec2-1 strain (AID 157); details: S. cerevisiae mec2-1 strain, active compounds read high
[3] = NCI Yeast Anticancer Drug Screen. Data for the sgs1 mgt1 strain (AID 161);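 note: 0% = growth of cultures given vehicle only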; details: S. cerevisiae sgs1 mgt1 strain, active compounds read high
[4] = NCI Yeast Anticancer Drug Screen. Data for the cln2 rad14 strain (AID 165);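 note: 0% = growth equal to vehicle treated cultures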; details: S. cerevisiae cln2 rad14 strain, active compounds read high
[5] = NCI Yeast Anticancer Drug Screen. Data for the bub3 strain (AID 167); details: S. cerevisiae bub3 mutant strain, active compounds read high
[6] = NCI Yeast Anticancer Drug Screen. Data for the mlh1 rad18 strain (AID 175); details: S. cerevisiae mlh1 rad18 strain growth inhibition, active compounds read high
[7] = at 5.0 µM (retest, dose inferred, filed as 0.5)
[8] = at 50.0 µM (retest, dose inferred, filed as 5.0)

| SMILES | growth inhibition ([1]; at 50.0 µM) | growth inhibition ([2]; at 50.0 µM) | growth inhibition ([3]; at 50.0 µM) | growth inhibition ([4]; at 50.0 µM) | growth inhibition ([5]; at 50.0 µM) | growth inhibition ([6]; at 50.0 µM) | growth inhibition [1, 7] | growth inhibition [1, 8] | growth inhibition [2, 7] | growth inhibition [2, 8] | growth inhibition [3, 7] | growth inhibition [3, 8] | growth inhibition [4, 7] | growth inhibition [4, 8] | growth inhibition [5, 7] | growth inhibition [5, 8] | growth inhibition [6, 7] | growth inhibition [6, 8] |
| --- | --- | --- | --- | --- | --- | --- | --- | --- | --- | --- | --- | --- | --- | --- | --- | --- | --- | --- |
| CC(Cl)CN(CC(C)Cl)c1ccc2ccccc2c1 (stereo unspecified) | inactive: -1.75% | inactive: -3.35% | inactive: -0.6% | inactive: -13.4% | inactive: -16.8% | inactive: -22.1% |  |  |  |  |  |  |  |  |  |  |  |  |
| ClCCN1[C@@H](CCl)CC[C@@H]1c1ccccc1 | inactive: 41.6% | inactive: 18.1% | inactive: 1.7% | inactive: -7.75% | inactive: -43.5% | inactive: -10.5% |  |  |  |  |  |  |  |  |  |  |  |  |
| CCCCC#CCN(CCCl)CCCl | inactive: 33.1% | inactive: 22.6% | inactive: 15.8% | inactive: 40% | inactive: -6.95% | inactive: 43.1% |  |  |  |  |  |  |  |  |  |  |  |  |
| CCN(CC)Cc1cccc(N(CCCl)CCCl)c1 | inactive: 56.4% | inactive: 26.2% | active: 71.2% | inactive: 48.4% | inactive: 66.8% | inactive: 69.8% | active: 91% | active: 99% | active: 71% | active: 99% | active: 89% | active: 99% | active: 73% | active: 92% | active: 85% | active: 95% | active: 76% | active: 98% |
| Cc1ccc(C[N+](C)(CCCl)CCCl)c([N+](=O)[O-])c1 | active: 81.8% | active: 78% | inactive: 59.4% | active: 79% | inactive: 15.1% | active: 81.7% | inactive: 9% | active: 86% | inactive: -2% | active: 81% | inactive: 3% | inactive: 54% | inactive: 23% | active: 82% | inactive: 9% | inactive: 60% | inactive: 33% | active: 92% |
| NS(=O)(=O)c1ccc(N(CCCl)CCCl)cc1 | inactive: 13.8% | inactive: 8.75% | inactive: 17.4% | inactive: 13.3% | inactive: 10.7% | inactive: 5.6% |  |  |  |  |  |  |  |  |  |  |  |  |
| O=C1C(SCCCl)=C(SCCCl)C(=O)c2[nH]cnc21 | active: 93.5% | active: 94.7% | active: 92.3% | active: 93.5% | active: 78.2% | active: 94% | active: 98% | active: 96% | active: 98% | active: 97% | active: 98% | active: 98% | active: 96% | active: 97% | active: 77% | active: 97% | active: 98% | active: 97% |
| O=S(=O)(CN(CCBr)CCBr)c1ccc(Cl)cc1 | active: 87.3% | active: 91.5% | active: 87.2% | active: 87.7% | active: 82.5% | active: 92.5% | active: 89% | active: 99% | inactive: 27% | active: 99% | inactive: 40% | active: 99% | inactive: 47% | active: 98% | inactive: 32% | active: 99% | active: 81% | active: 98% |
| NNP(=S)(NN)c1ccccc1 | inactive: 0.9% | inactive: -11.4% | inactive: 42.7% | inactive: -18.2% | inactive: -4.45% | inactive: 6.15% | inactive: 0% | inactive: 1% | inactive: 0% | inactive: -20% | inactive: -1% | inactive: -2% | inactive: -1% | inactive: -2% | inactive: 2% | inactive: 2% | inactive: -3% | inactive: -2% |
| CC(=O)n1c(=O)n(C2CCN(CCCC(=O)c3ccc(F)cc3)CC2)c2ccccc21 | inactive: 68.1% | inactive: 25.6% | active: 73.2% | inactive: 57.5% | inactive: 67.7% | active: 72.1% | inactive: 9% | inactive: 19% | inactive: 4% | inactive: 23% | inactive: 7% | inactive: 48% | inactive: 6% | active: 78% | inactive: 8% | inactive: 44% | inactive: 0% | inactive: 50% |
| O=CCCCc1ccc(N(CCCl)CCCl)cc1 | inactive: -1.75% | inactive: -6.4% | inactive: -6.5% | inactive: -1.65% | inactive: 6.8% | inactive: 30.7% |  |  |  |  |  |  |  |  |  |  |  |  |
| CC1=CC(=O)C(N(CCCl)CCCl)=CC1=O | inactive: 40.1% | inactive: 65.2% | inactive: 58.9% | inactive: 61.6% | inactive: 6.1% | active: 84.5% | active: 91% | inactive: 56% | inactive: 64% | inactive: 29% | inactive: 69% | active: 71% | inactive: 63% | inactive: 62% | inactive: 43% | inactive: 41% | active: 89% | inactive: 44% |
